This is an account of results in US9826734B2, “Etherified lactate esters, method for the production thereof and use thereof for enhancing the effect of plant protecting agents” (Clariant International Ltd., priority 2011, dated 2017).

Data set [1] relates to leaf cuticles of apple. The data set can be described thus: Membrane penetration of thiacloprid through isolated apple leaf cuticles. The settings on record: 0.2 g/l thiacloprid. The source says: (§1) Surfactants may also promote the uptake of (active) ingredients through membranes such as skin, films, or the plant cuticle. In the form of what is called “finite dose” application, it is known, for the single administration or application of a solution, cream, gel, etc. to a membrane, that the uptake of active ingredient can be influenced, even after wetting has taken place, by certain adjuvants such as surfactants.
(§2) The potential, independent of the surfactant activity, to promote the leaf uptake of active agrochemical ingredients was determined in membrane penetration experiments with leaf cuticles of apple. […] After they had been dried in air, the cuticles were installed into stainless steel diffusion cells. After application to the original top leaf face and evaporation of the test fluid, i.e., of the aqueous preparations of the active ingredients without or with the etherified lactate esters, the diffusion cells were transferred to thermostated blocks and were filled with aqueous liquid. The water used to prepare the aqueous test liquids was local tap water (known composition). At regular intervals, samples were taken and the penetrated fraction of active ingredient was determined, depending on the test system, either by HPLC or by scintillation measurement. In the system with radiolabeled active ingredient (thiacloprid and fluoxastrobin), the aqueous liquid was a phospholipid suspension and the entire quantity was replaced. […] During the experiment, the temperature in the system (block, diffusion cells, liquids, etc.) and the atmospheric humidity over the spray coating on the cuticle was precisely known and monitored.
1) a solution of the insecticide thiacloprid with 0.5 g/l and 3 g/l etherified lactate ester

Data set [2] relates to leaf cuticles of apple. The data set can be described thus: Membrane penetration of fluoxastrobin through isolated apple leaf cuticles. The settings on record: 0.3 g/l fluoxastrobin.
From the text: as §1, §2
3) a solution of fungicide fluoxastrobin with 0.5 g/l and 2 g/l etherified lactate ester

[3] abbreviates: 0.5 g/l etherified lactate ester, 24 h, 20° C./60% RH.
Where [4] appears, read: 0.5 g/l etherified lactate ester, 48 h, 30° C./60% RH.
Where [5] appears, read: 3 g/l etherified lactate ester, 24 h, 20° C./60% RH.
Where [6] appears, read: 3 g/l etherified lactate ester, 48 h, 30° C./60% RH.
[7] abbreviates: 0.5 g/l etherified lactate ester, 24 h, 15° C./60% RH.
[8] abbreviates: 0.5 g/l etherified lactate ester, 48 h, 25° C./60% RH.
The mark [9] stands for this setting: 2 g/l etherified lactate ester, 24 h, 15° C./60% RH.
Setting [10] is: 2 g/l etherified lactate ester, 48 h, 25° C./60% RH.

Regarding 2-ethylhexyl lactate 2PO/5EO, the “Mean penetration of thiacloprid in %” value in the data set on leaf cuticles of apple [1] (setting [3]) came out at 10.2%; in the data set on leaf cuticles of apple [1] (setting [4]), 12.1%; in the data set on leaf cuticles of apple [1] (setting [5]) it was 43.2%; in the data set on leaf cuticles of apple [1] (setting [6]) it was 49.2%. In addition, the “Mean penetration of fluoxastrobin in %” value in the data set on leaf cuticles of apple [2] (setting [7]) was 9.9%; in the data set with leaf cuticles of apple [2] (setting [8]), 16.2%; in the data set with leaf cuticles of apple [2] (setting [9]) it was 14.4%; in the data set on leaf cuticles of apple [2] (setting [10]) it was 24.2%.

As for Lauryl lactate 8EO/5PO, the “Mean penetration of thiacloprid in %” value was determined as 20.5% in the data set on leaf cuticles of apple [1] (setting [3]), 27.3% in the data set with leaf cuticles of apple [1] (setting [4]), 72.0% with leaf cuticles of apple [1] (setting [5]) and 82.9% in the data set on leaf cuticles of apple [1] (setting [6]). In addition, the “Mean penetration of fluoxastrobin in %” value in the data set on leaf cuticles of apple [2] (setting [7]) is 3.9%; in the data set with leaf cuticles of apple [2] (setting [8]), 9.6%; in the data set with leaf cuticles of apple [2] (setting [9]), 6.8%; in the data set on leaf cuticles of apple [2] (setting [10]), 19.8%.

Regarding 2-ethylhexyl lactate 15EO, the “Mean penetration of thiacloprid in %” value with leaf cuticles of apple [1] (setting [3]) came out at 10.5%; in the data set on leaf cuticles of apple [1] (setting [4]), 14.0%; with leaf cuticles of apple [1] (setting [5]) it was 29.9%; in the data set on leaf cuticles of apple [1] (setting [6]) it was 41.9%. For the same substance, the “Mean penetration of fluoxastrobin in %” value in the data set with leaf cuticles of apple [2] (setting [7]) stood at 9.5%; in the data set with leaf cuticles of apple [2] (setting [8]), 14.1%; in the data set on leaf cuticles of apple [2] (setting [9]), 13.4%; with leaf cuticles of apple [2] (setting [10]), 25.8%.

For 2-ethylhexyl lactate 2EO, the “Mean penetration of thiacloprid in %” value came out at 5.6% with leaf cuticles of apple [1] (setting [3]), 6.5% in the data set with leaf cuticles of apple [1] (setting [4]), 35.5% in the data set with leaf cuticles of apple [1] (setting [5]) and 43.0% in the data set with leaf cuticles of apple [1] (setting [6]). Besides, the “Mean penetration of fluoxastrobin in %” value in the data set with leaf cuticles of apple [2] (setting [7]) was found to be 10.6%; in the data set on leaf cuticles of apple [2] (setting [9]), 11.4%; in the data set with leaf cuticles of apple [2] (setting [10]) it was 18.9%.

2-ethylhexyl lactate 5EO: the “Mean penetration of thiacloprid in %” value in the data set on leaf cuticles of apple [1] (setting [3]) is 12.1%; in the data set on leaf cuticles of apple [1] (setting [4]), 14.1%; in the data set on leaf cuticles of apple [1] (setting [5]), 31.4%; in the data set with leaf cuticles of apple [1] (setting [6]), 39.9%. In addition, the “Mean penetration of fluoxastrobin in %” value with leaf cuticles of apple [2] (setting [7]) was 8.7%; in the data set on leaf cuticles of apple [2] (setting [8]) it was 13.9%; in the data set on leaf cuticles of apple [2] (setting [9]), 13.0%; in the data set with leaf cuticles of apple [2] (setting [10]), 21.4%.

For the substance Lauryl lactate 5EO/2PO, the “Mean penetration of thiacloprid in %” value came out at 13.6% in the data set with leaf cuticles of apple [1] (setting [3]), 17.4% in the data set on leaf cuticles of apple [1] (setting [4]), 63.9% with leaf cuticles of apple [1] (setting [5]) and 74.5% with leaf cuticles of apple [1] (setting [6]). Also, the “Mean penetration of fluoxastrobin in %” value in the data set on leaf cuticles of apple [2] (setting [7]) was determined as 3.3%; with leaf cuticles of apple [2] (setting [8]), 7.5%; with leaf cuticles of apple [2] (setting [9]), 12.7%; in the data set with leaf cuticles of apple [2] (setting [10]) it was 25.6%.

Lauryl lactate 5EO/5PO: the “Mean penetration of thiacloprid in %” value in the data set on leaf cuticles of apple [1] (setting [3]) is on record as 18.6%; in the data set with leaf cuticles of apple [1] (setting [4]) it was 24.0%; in the data set on leaf cuticles of apple [1] (setting [5]), 67.4%; in the data set with leaf cuticles of apple [1] (setting [6]), 76.3%. Also, the “Mean penetration of fluoxastrobin in %” value in the data set with leaf cuticles of apple [2] (setting [7]) is on record as 4.7%; in the data set with leaf cuticles of apple [2] (setting [8]), 10.0%; with leaf cuticles of apple [2] (setting [9]) it was 12.2%; in the data set on leaf cuticles of apple [2] (setting [10]), 23.1%.

For Lauryl lactate 8EO/2PO, the “Mean penetration of thiacloprid in %” value is 14.5% in the data set with leaf cuticles of apple [1] (setting [3]), 18.8% in the data set with leaf cuticles of apple [1] (setting [4]), 73.3% with leaf cuticles of apple [1] (setting [5]) and 80.4% with leaf cuticles of apple [1] (setting [6]). Moreover, the “Mean penetration of fluoxastrobin in %” value stood at 4.0% in the data set on leaf cuticles of apple [2] (setting [7]), 7.8% in the data set on leaf cuticles of apple [2] (setting [8]), 11.5% in the data set on leaf cuticles of apple [2] (setting [9]) and 20.4% with leaf cuticles of apple [2] (setting [10]).

For 2-ethylhexyl lactate 2PO/2EO, the “Mean penetration of thiacloprid in %” value in the data set with leaf cuticles of apple [1] (setting [3]) is 11.5%; in the data set on leaf cuticles of apple [1] (setting [4]) it was 15.1%; in the data set on leaf cuticles of apple [1] (setting [5]), 20.3%; in the data set on leaf cuticles of apple [1] (setting [6]), 23.4%. The “Mean penetration of fluoxastrobin in %” value in the data set on leaf cuticles of apple [2] (setting [7]) is listed as 12.1%; with leaf cuticles of apple [2] (setting [8]), 18.6%; in the data set with leaf cuticles of apple [2] (setting [9]), 16.1%; with leaf cuticles of apple [2] (setting [10]), 26.0%.

Regarding 2-ethylhexyl lactate 10EO, the “Mean penetration of thiacloprid in %” value with leaf cuticles of apple [1] (setting [3]) was found to be 11.0%; in the data set on leaf cuticles of apple [1] (setting [4]), 12.4%; in the data set on leaf cuticles of apple [1] (setting [5]), 39.6%; in the data set on leaf cuticles of apple [1] (setting [6]), 46.2%. The “Mean penetration of fluoxastrobin in %” value is 9.7% with leaf cuticles of apple [2] (setting [7]), 15.9% in the data set on leaf cuticles of apple [2] (setting [8]), 16.8% in the data set with leaf cuticles of apple [2] (setting [9]) and 26.9% in the data set with leaf cuticles of apple [2] (setting [10]).

Regarding 2-ethylhexyl lactate 2PO/10EO, the “Mean penetration of thiacloprid in %” value was 8.1% in the data set with leaf cuticles of apple [1] (setting [3]), 10.0% in the data set on leaf cuticles of apple [1] (setting [4]), 36.9% with leaf cuticles of apple [1] (setting [5]) and 47.2% with leaf cuticles of apple [1] (setting [6]). The “Mean penetration of fluoxastrobin in %” value in the data set with leaf cuticles of apple [2] (setting [7]) came to 8.9%; in the data set with leaf cuticles of apple [2] (setting [8]) it was 17.5%; in the data set with leaf cuticles of apple [2] (setting [9]), 13.1%; in the data set with leaf cuticles of apple [2] (setting [10]) it was 22.1%.
